For this assay, the target named is Recombinant human β-Secretase (BACE-1) (Homo sapiens, UniProt P56817). Kind of assay: BACE1 inhibition assay with fluorogenic substrate. Particulars: read-out: Experimental IC50; value of the racemic mixture, printed in Table 2 beside the enantiomer.

Chains of the proteins cited; added tags and fusions are not shown. Residues count along the entry.
UniProt P56817, 46-457 limits assumed: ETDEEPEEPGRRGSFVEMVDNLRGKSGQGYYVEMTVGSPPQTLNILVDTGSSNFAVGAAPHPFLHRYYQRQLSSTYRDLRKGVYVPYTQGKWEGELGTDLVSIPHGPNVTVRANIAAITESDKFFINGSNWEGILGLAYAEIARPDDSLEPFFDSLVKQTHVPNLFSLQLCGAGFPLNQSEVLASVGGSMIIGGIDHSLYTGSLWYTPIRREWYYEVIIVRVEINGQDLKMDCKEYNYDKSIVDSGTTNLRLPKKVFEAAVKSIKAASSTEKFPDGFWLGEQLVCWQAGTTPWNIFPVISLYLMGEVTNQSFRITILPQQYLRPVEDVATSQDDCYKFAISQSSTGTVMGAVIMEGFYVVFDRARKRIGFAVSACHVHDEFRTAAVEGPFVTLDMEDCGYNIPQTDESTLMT

The values that follow come from article PMC7571164, “One Pot Synthesis of Micromolar BACE-1 Inhibitors Based on the Dihydropyrimidinone Scaffold and Their Thia and Imino Analogues” (Molecules, 2020).

As for `CCOC(=O)C1=C(C)NC(=N)N[C@H]1c1ccc2ccccc2c1`, the IC50 – broadly, the concentration at which inhibition is half-maximal – was 200 nM.

In the case of `CCOC(=O)C1=C(C)NC(=N)N[C@@H]1c1ccc2ccccc2c1`, the IC50 came to 200 nM.

As for `CCOC(=O)C1=C(C)NC(=N)N[C@@H]1c1ccccc1`, the IC50 was 500 nM.
